Laboratory results as given in publication PMC4059246 (Journal of Medicinal Chemistry, 2014).

Each compound was assayed on RPA194. Conditions: not given.

Structure (SMILES) | Decrease in potency relative to compound 2
CN(C)CCN(C)C(=O)c1cccn2c(=O)c3cc4ccccc4cc3nc12 [Compound 18, N-[2-(Dimethylamino)ethyl]-N-methyl-12-oxo-12H-benzo[g]pyrido[2,1-b]quinazoline-4-carboxamide] | either inactive or caused >400-fold decrease in potency

Same assay, conditions: RPA194 and NCL assays in U2OS cells

Structure (SMILES) | Biological activity (in words)
CN1CCC(N(C)C(=O)c2cccn3c(=O)c4cc5ccccc5cc4nc23)C1 (stereo not shown) [Compound 32, N-Methyl-N-(1-methylpyrrolidin-3-yl)-12-oxo-12H-benzo[g]pyrido[2,1-b]quinazoline-4-carboxamide] | inactive
CC(C)(C)OC(=O)N1CC(NC(=O)c2cccn3c(=O)c4cc5ccccc5cc4nc23)C1 [Compound 30, tert-Butyl 3-[(12-Oxo-12H-benzo[g]pyrido[2,1-b]quinazoline-4-carbonyl)amino]azetidine-1-carboxylate] | inactive

Same assay, conditions: U2OS cells, 0.5 μM, 3 h, representative images (Figure 2A)

Structure (SMILES) | Effect on expression of RPA194
CCN(CC)CCNC(=O)c1cccn2c(=O)c3cc4ccccc4cc3nc12 [Compound 10, N-[2-(Diethylamino)ethyl]-12-oxo-12H-benzo[g]pyrido[2,1-b]quinazoline-4-carboxamide] | almost complete loss of expression of RPA194
CC(CN(C)C)NC(=O)c1cccn2c(=O)c3cc4ccccc4cc3nc12 (stereo not shown) [Compound 11, N-[2-(Dimethylamino)-1-methylethyl]-12-oxo-12H-benzo[g]pyrido[2,1-b]quinazoline-4-carboxamide] | almost complete loss of expression of RPA194
CN(C)CCCCNC(=O)c1cccn2c(=O)c3cc4ccccc4cc3nc12 [Compound 14, N-[4-(Dimethylamino)butyl]-12-oxo-12H-benzo[g]pyrido[2,1-b]quinazoline-4-carboxamide] | no effect
O=C(NCCN1CCCCC1)c1cccn2c(=O)c3cc4ccccc4cc3nc12 [Compound 8, 12-Oxo-N-[2-(1-piperidyl)ethyl]-12H-benzo[g]pyrido[2,1-b]quinazoline-4-carboxamide] | almost complete loss of expression of RPA194
O=C(NCCN1CCOCC1)c1cccn2c(=O)c3cc4ccccc4cc3nc12 [Compound 36, N-(2-Morpholinoethyl)-12-oxo-12H-benzo[g]pyrido[2,1-b]quinazoline-4-carboxamide] | no effect
CN(C)CCNC(=O)c1cccn2c(=O)c3cc4ccccc4cc3nc12 [Compound 2, N-[2-(Dimethylamino)ethyl]-12-oxo-12H-benzo[g]pyrido[2,1-b]quinazoline-4-carboxamide] | almost complete loss of expression of RPA194
O=C(NC1CNC1)c1cccn2c(=O)c3cc4ccccc4cc3nc12 [Compound 12, N-(Azetidin-3-yl)-12-oxo-12H-benzo[g]pyrido[2,1-b]quinazoline-4-carboxamide] | almost complete loss of expression of RPA194
